According to PubChem BioAssay AID588453 (National Center for Advancing Translational Sciences (NCATS), 2011):
Only a part is listed here, and it is no random draw. Results filed as inconclusive are left out. Entries that show only a call come without a potency. Activity calls are given as the source filed them. Calls follow the shape of the dose curve; as a rule, active = well fitted inhibition curve with a large enough effect; inconclusive = small, poorly fitted or top-dose-only effect; inactive = no such curve, though single readings can be large or run the other way.

Sequences of proteins named here, by UniProt entry; tags and fusion partners are left off.
UniProt O89049, whole entry, looked up: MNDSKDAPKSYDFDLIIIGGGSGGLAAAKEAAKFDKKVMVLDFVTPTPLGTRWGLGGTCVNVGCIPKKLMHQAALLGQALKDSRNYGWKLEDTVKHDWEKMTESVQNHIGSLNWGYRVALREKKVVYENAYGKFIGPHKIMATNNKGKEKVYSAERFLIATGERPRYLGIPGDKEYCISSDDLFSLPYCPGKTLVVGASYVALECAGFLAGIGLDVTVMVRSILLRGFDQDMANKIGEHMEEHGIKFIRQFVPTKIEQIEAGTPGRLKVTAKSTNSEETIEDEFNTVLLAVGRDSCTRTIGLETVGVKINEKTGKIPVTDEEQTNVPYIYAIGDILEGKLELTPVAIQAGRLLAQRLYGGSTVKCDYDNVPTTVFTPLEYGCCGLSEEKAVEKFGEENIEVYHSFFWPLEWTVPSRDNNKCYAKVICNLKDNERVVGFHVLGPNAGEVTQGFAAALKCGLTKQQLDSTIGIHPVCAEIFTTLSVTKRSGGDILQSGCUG

molecular target: Thioredoxin reductase 1, cytoplasmic (Rattus norvegicus) (UniProt O89049); test: qHTS Assay for Inhibitors of Mammalian Selenoprotein Thioredoxin Reductase 1 (TrxR1): qHTS; details: recombinant rTrxR1, NADPH fluorescence consumption, selenite substrate; series mostly up to 114 µM; also: nearly all actives have a fitted effect of over 65% in size
Potency is read from the fitted curve at half-maximal effect.

SMILES | activity change, negative = inhibition | Potency
CCCOP(=S)(Nc1nc(N)cc(=O)[nH]1)OCCC | inactive | 
COc1cc(C2NCCC3(OCCO3)C2(C)C)cc(OC)c1OC (centres undefined) | inactive | 
CCOP(=O)(Nc1cccc2ccccc12)OCC | inactive | 
O=[As](O)(O)c1cccnc1 | inactive | 
COc1cc(C(=O)NCC2(N3CCOCC3)CCCCC2)cc(Cl)c1OC(C)C | inactive | 
CS(=O)(=O)c1ccc(Cl)c(NC(=O)COC(=O)C(O)(c2ccccc2)c2ccccc2)c1 | inactive | 
O=C(OC1CN2CCC1CC2)c1ccc(Cl)cc1 (centres undefined) | inactive | 
CN(C(=O)Cc1ccc(Cl)c(Cl)c1)[C@@H]1CC[C@]2(CCCO2)C[C@H]1N1CCCC1 | inactive | 
Cc1cccc(OCC(=O)OC2CN3CCC2CC3)c1 (centres undefined) | inactive | 
O=[As](O)(c1cccc(O)c1)c1cccc(O)c1 | inactive | 
NC(=O)Nc1ccc([As](=O)(O)O)cc1 | inactive | 
O=[N+]([O-])c1ccc2c(c1)nnn2O | inactive | 
CN(C(=O)Cc1ccc(Cl)c(Cl)c1)[C@H]1CC[C@@]2(CCCO2)C[C@@H]1N1CCCC1 | inactive | 
N#CCCN(C(=O)COC(=O)C(O)(c1ccccc1)c1ccccc1)c1ccc(F)cc1 | inactive | 
CCOP1(=S)c2c(C)nn(CCC#N)c2N=C(c2ccc(F)cc2)N1C (centres undefined) | inactive | 
CN(C(=O)Cc1ccccc1)[C@@H]1CC[C@]2(CCCO2)C[C@H]1N1CCCC1 | inactive | 
CS(=O)(=O)c1cc([N+](=O)[O-])c2no[n+]([O-])c2c1 |  | active: 8.91 µM
CCOP1(=S)c2c(C)nn(CCC#N)c2N=C(c2ccccc2F)N1C (centres undefined) | inactive | 
O=P(Nc1nccs1)(Oc1ccccc1)Oc1ccccc1 | inactive | 
O=P(Nc1nccs1)(c1ccccc1)c1nc2ccccc2s1 (centres undefined) |  | active: 3.55 µM
Nc1ccccc1[As](=O)(O)c1ccccc1 | inactive | 
O=C(O)COc1ccc([As](=O)(O)O)cc1[N+](=O)[O-] | inactive | 
O=P1(Nc2ncccn2)COc2ccccc2OC1 | inactive | 
Cc1ccc(OCC(=O)OC2CN3CCC2CC3)cc1 (centres undefined) | inactive | 
O=[As](O)(c1cccs1)c1cccs1 | inactive: -2.38% [at 2.29 µM] | 

SMILES | activity change, negative = inhibition | Potency
O=P1(Nc2ccc(Br)cn2)COc2ccccc2OC1 | inactive | 
NS(=O)(=O)c1cccc(NC(=O)COC(=O)C(O)(c2ccccc2)c2ccccc2)c1 | inactive | 
Nc1cccc([As](=O)(O)c2ccccc2)c1 | inactive | 
Cc1nn(-c2ccccc2)c2c1P(=O)(N1CCOCC1)N(C)C(c1ccccc1)=N2 (centres undefined) | inactive | 
CC1CCC(C(C)C)C(OP(=O)(Nc2ccccn2)c2ccccc2)C1 (centres undefined) | inactive | 
Cc1ccc(C(=O)OC2CN3CCC2CC3)cc1 (centres undefined) | inactive | 
COc1cc([N+](=O)[O-])ccc1[N+](=O)[O-] | inactive | 
O=C(/C=C/c1ccccc1)OC1CN2CCC1CC2 (centres undefined) | inactive | 
CCCC1OP(=O)(Nc2ccccc2)OCC1CC (centres undefined) | inactive | 
CN(C)C1(CNC(=O)c2ccc(S(C)(=O)=O)cc2)CCCCC1 | inactive | 
COc1ccccc1CNC(=O)COC(=O)C(O)(c1ccccc1)c1ccccc1 | inactive | 
CC1(CBr)Cn2c(nc3ccccc3c2=O)S1 (centres undefined) | inactive | 
CC(C)/C=N\N=C(\N)N[N+](=O)[O-] | inactive | 
CCOP(=O)(Nc1ccc(C)cn1)OCC | inactive | 
O=P1(Nc2ccccn2)COc2ccccc2OC1 | inactive | 
CCC1=CC2Cc3nc4ccc(Cl)cc4c(N)c3C(C1)C2 (centres undefined) | inactive | 
CCOP(=O)(NC(=NC(C)c1ccccc1)NC(C)c1ccccc1)OCC (centres undefined) | inactive | 
Clc1n[nH]nc1-c1nn[nH][15n]1 | inactive | 
CCOC(=O)c1ccc(NC(=O)C(C)(CCl)SC)cc1 (centres undefined) | inactive | 
O=C(OC1CN2CCC1CC2)c1cccc([N+](=O)[O-])c1 (centres undefined) | inactive | 
CCOP(=O)(Nc1cccc2cccnc12)OCC | inactive: 17.4% [at 0.457 µM] | 
CCC(C)N(CC(C)C)C(=S)SC(NC(C)=O)C(Cl)(Cl)Cl (centres undefined) |  | active: 50.1 µM
COP1(=S)c2c(C)nn(CCC#N)c2N=C(c2ccc(F)cc2)N1C (centres undefined) | inactive | 
O=C(COc1ccccc1)OC1CN2CCC1CC2 (centres undefined) | inactive | 
O=C(Nc1ccncc1[N+](=O)[O-])c1ccc([N+](=O)[O-])cc1[N+](=O)[O-] | inactive | 

SMILES | activity change, negative = inhibition | Potency
CCOC(=O)Nc1cccc([As](=O)(O)O)c1 | inactive | 
O=[N+]([O-])c1ccc(Nc2ccc(Oc3ccc([N+](=O)[O-])cc3[N+](=O)[O-])cc2)c([N+](=O)[O-])c1 | inactive: 4.44% [at 2.29 µM] | 
O=P(Nc1ccccn1)(c1cccc2ccccc12)c1cccc2ccccc12 | inactive | 
Cc1cc(SC(NC=O)C(Cl)(Cl)Cl)ncn1 (centres undefined) |  | active: 14.1 µM
CC1CCNP(=O)(N(CCCl)CCCl)O1 (centres undefined) | inactive | 
CCCCOc1ccc(C(=O)NCC2(N3CCCCC3)CCCCC2)cc1OC | inactive | 
COC(=O)C1(C)COP(=O)(N2CCCCCC2)OC1 (centres undefined) | inactive: 1.42% [at 11.4 µM] | 
CC(C)c1ccc(OP(=O)(Nc2ccccn2)Oc2ccccc2F)cc1 (centres undefined) | inactive | 
ClCCSc1nnc(-c2cccnc2)o1 | inactive | 
O=Cc1ccc(NCCCl)cc1 | inactive | 
CC(C)NC(=O)NP(=O)(Oc1ccccc1)Oc1ccccc1 | inactive | 
CCN(CC)C(=S)SC(NC=O)C(Cl)(Cl)Cl (centres undefined) | inactive | 
O=C(OC1CN2CCC1CC2)c1cccc2[nH]cnc12 (centres undefined) | inactive | 
O=[N+]([O-])c1cc([N+](=O)[O-])c(-c2ccn[nH]2)s1 |  | active: 3.16 µM
C[As](=O)(O)c1cccc(C(=O)O)c1 | inactive | 
O=[As](O)(c1ccc(O)cc1)c1ccccc1O | inactive | 
COc1cc(C(=O)NCC2(N3CCOCC3)CCCCC2)ccc1OCC(C)C | inactive | 
Cc1ccc2nc3c(c(C)c2c1)CC(C(Cl)Cl)S3 (centres undefined) | inactive | 
Cc1ccc(OP(=O)(Nc2ccc([N+](=O)[O-])cn2)Oc2ccc(C)cc2)cc1 | inactive | 
COc1ccc(N/C(=N/P(=O)(N2CCOCC2)N2CCOCC2)N2CCOCC2)cc1 | inactive | 
O=C(OC1CN2CCC1CC2)C12CC3CC(CC(C3)C1)C2 (centres undefined) | inactive | 
Cc1cc(=O)[nH]c(N[N+](=O)[O-])n1 | inactive | 
Cc1c2c(nc3ccccc13)SC(C(Cl)Cl)C2 (centres undefined) | inactive | 
COc1ccc2nc(NP(=O)(c3ccccc3)c3ccccc3)sc2c1 | inactive | 
